Among the data in patent US5759556A, “Skin care compositions containing certain cyclic aliphatic unsaturated compounds and retinol or retinyl ester” (Chesebrough-Pond's USA Co., Division of Conopco, Inc., priority 1996, dated 1998) are inhibition values, retold here.

SMILES strings stand for the structures.

For this test, the target named is T1, LRAT (Bos taurus, UniProt Q9BGL2).
T1 construct: microsomal fraction isolated from bovine retinal pigment epithelial cells; from tissue; host or cells: bovine retinal pigment epithelial cells, microsomal fraction
T1 sequence (Q9BGL2 1-230): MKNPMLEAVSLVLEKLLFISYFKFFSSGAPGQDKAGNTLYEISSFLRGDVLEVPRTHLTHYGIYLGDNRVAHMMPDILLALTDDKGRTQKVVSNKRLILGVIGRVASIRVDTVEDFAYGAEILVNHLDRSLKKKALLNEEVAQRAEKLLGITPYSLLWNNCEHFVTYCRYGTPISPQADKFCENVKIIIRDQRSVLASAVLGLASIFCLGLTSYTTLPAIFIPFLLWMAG
Nature of the test: In vitro microsomal esterification of retinol, LRAT catalyzed (retinyl laurate formation). It counts as biochemical, bovine. Particulars: Table A.

Take `CC1=CCC(C(C)(C)O)CC1` (stereo not drawn) [alpha terpineol]: the inhibition at 100 µM was found to be 25%.

The inhibition is the drop in the measured response relative to a control, in per cent.
